Source: PubChem
Mito fusion act – blocks mitochondrial division or promotes mitochondrial fusion | actives 0.23% (n = 320,000) | Potency, µM (highest dose often 46.1 µM), most hits filed as activators | S. cerevisiae fusion-defective mutant growth rescue, CellTiterGlo 48 h; further: nearly all actives have a fitted effect of over 45% in size
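Luminescent cell viability in 1536-well qHTS format served as the measure of rescued growth in ts fusion-mutant S. cerevisiae cultured on non-fermentable YPEG for 48 hours at 37C.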
miR-21 FLuc – miR-21 reporter, rising signal | AID 2288 | HeLa miR-21 FLuc reporter, luciferase, 48 h | 340,000 tested, under 10 active | Potency, µM (titrated, usually from 38.3 µM); active = well fitted rising curve with a large enough effect; inconclusive = small, poorly fitted or top-dose-only effect; inactive = no such curve, though single readings can be large or run the other way;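 also: miR-21 action dims this reporter so a rising signal means less miR-21 action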
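HeLa miR-21-FLuc reporter line, endogenous miR-21; 2000 cells/well in DMEM/10% FBS; compound titration up to ~40uM final, 48 h, 37 degree Celsius; luciferase detection reagent, 15 min lysis, CCD luminescence.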
Nrf2 block – Nrf2 pathway inhibition; A549 ARE-Fluc reporter, luciferase luminescence, 18-24 h; Potency, µM (highest dose often 46 µM), usual class: inhibitors; actives 2.1% (n = 360,000); further: nearly all actives have a fitted effect of over 60% in size
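Reporter: ARE-Fluc in A549. Exposure: 18-24 h, 37 °C, 5% CO2, 5% FBS OPTI-MEM. Readouts: fluorescent cytotoxicity (CellTiter-Fluor), then luminescent Nrf2 signal after BugLite.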
Nrf2 activator – Nrf2 pathway activation. AREc32 ARE-luciferase reporter (MCF7-derived line), luminescence, 24 h. Potency, µM (titrated, usually from 46.1 µM), actives largely listed as activators. actives 0.31% (n = 410,000); further: nearly all actives have a fitted effect of over 65% in size
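Reporter line AREc32 (ARE-Fluc), seeded overnight in OPTI-MEM with 5% FBS; compound pin-transferred, 24 hr at 37 deg C, 5% CO2; luminescent read-out.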
GRP78 ERSR act – inducers of ER stress response in human glioma cells; AID 602332; Potency, µM, most hits filed as activators; actives 0.02% (n = 420,000); U87-MG GRP78 promoter luciferase reporter, 16 h; further: series mostly up to about 76 µM; nearly all actives have a fitted effect of over 35% in size
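Stably transfected U87-MG glioma cells carrying a GRP78-based luciferase sensor; 16 h compound incubation. Luminescence end-point read 10 min after Bright-Glo addition at room temperature.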
A549 tox-1 – counter-screen for Nrf2 inhibitors: cytotoxicity in A549 cells; A549 ARE-Fluc cells, CellTiter-Fluor viability, 18-24 h; Potency, µM (top dose mostly 46 µM), most hits filed as inhibitors; actives 0.16% (n = 390,000); AID 504648
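A549 ARE_Fluc cells in 5% FBS OPTI-MEM were exposed to compounds in concentration-response for 18-24 h at 37 deg C. Viability was read by CellTiter-Fluor fluorescence (Ex 405/Em 525) after 30 min, before the luciferase read.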
FLuc counter 3 – counter-screen for Nrf2 inhibitors: firefly luciferase enzyme inhibition; shares compounds with Nrf2 block; purified firefly luciferase, luminescence inhibition; Potency, µM (titrated, usually from 57.5 µM), usual class: inhibitors; actives 4% (n = 1,400); further: nearly all actives have a fitted effect of over 65% in size
A549 tox-2 – A549 cytotoxicity, Nrf2 inhibitor counterscreen; A549 ARE-Fluc cells, cytotoxicity counterscreen; Potency, µM (series often up to 46.1 µM), usual class: inhibitors; actives 2% (n = 1,400); shares compounds with Nrf2 block; AID 720523;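 further: cells exposed to compounds for 18 to 24 hours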
ARE-Fluc inh – reduces Nrf2 ARE reporter signal in A549 cells | A549 ARE-firefly luciferase reporter, luminescence | AID 720524 | Potency, µM (highest dose often 46.1 µM), hits mostly inhibitors | actives 74% (n = 1,400) | shares compounds with Nrf2 block; further: nearly all actives have a fitted effect of over 65% in size
A number is an active result; 0 = inactive; ? = inconclusive; - = no result given. Sampled rows, rich in hits. Any-hit rate of the full collection: about 2.3%. Unless noted, the call rests on the fitted dose curve; in most records, active means well fitted curve in the direction sought with a large enough effect; inconclusive means small, poorly fitted or top-dose-only effect, or another doubt; inactive means no such curve, though single readings can be large; an effect the other way counts as inactive or inconclusive.

SMILES	Mito fusion act	miR-21 FLuc	Nrf2 block	Nrf2 activator	GRP78 ERSR act	A549 tox-1	FLuc counter 3	A549 tox-2	ARE-Fluc inh
OCC[n+]1ccc(/C=C/c2c[nH]c3ccccc23)cc1	0	0	6.5µM	0	0	?	0	?	8.2µM
CCCCCCCCCCCCCCCC[n+]1ccc(/C=C/c2c[nH]c3ccccc23)cc1	-	-	-	-	0	-	?	?	7.3µM
CCc1ccc(CNC(=O)CCCn2ccc3cc(S(=O)(=O)N4CCCC4)ccc32)cc1	-	0	?	0	0	0	-	-	-
COc1ccc(Cn2c(=O)[nH]c3cc(C(=O)NCc4ccc5c(c4)OCO5)ccc3c2=O)cc1	-	-	?	0	0	0	-	-	-
O=C(NCc1ccc2c(c1)OCO2)c1ccc2c(=O)n(C3CCCC3)c(=O)[nH]c2c1	0	0	8.2µM	0	0	?	0	0	0.23µM
Cc1cccc(Nc2nc(-c3c(C)nc4ccccn34)cs2)c1	0	0	9.2µM	0	0	0	0	0	6.5µM
Cc1nc2ccccn2c1-c1csc(Nc2cccc(O)c2)n1	0	0	0	0	0	0	-	-	-
Cc1ccc2c(c1)N(S(=O)(=O)c1cc(-c3onc(C)c3C)ccc1C)CCO2	0	0	8.2µM	0	0	0	0	0	?
Cc1cc(C)c(NS(=O)(=O)c2cc(-c3onc(C)c3C)ccc2C)c(C)c1	-	0	?	0	0	0	-	-	-
COc1ccc(Nc2cc(C)nc3ncnn23)c(OC)c1	0	0	0	0	0	0	-	-	-
COc1ccc(CNc2cc(C)nc3ncnn23)c(OC)c1	0	0	1.6µM	0	0	0	0	0	?
COC(=O)[C@]1(C)N[C@H](CN(C)S(=O)(=O)c2ccccc2)[C@@H]2C(=O)N(C)C(=O)[C@@H]21	-	-	0	0	0	0	-	-	-
Cc1ccc(-c2cn(-c3ccccc3)c3[n+]2CCCS3)cc1	0	?	4.6µM	0	0	?	0	0	6.5µM
COc1ccc(-n2cc(-c3ccc(C)cc3)[n+]3c2SCC3)cc1	0	?	9.2µM	0	0	?	0	0	5.2µM
N#Cc1ccc(-c2cn(-c3ccccc3)c3[n+]2CCCS3)cc1	0	0	0	0	0	0	-	-	-
COc1ccc(C(=O)NCc2nnc(SCC(=O)NCc3ccco3)o2)cc1OC	0	0	0	0	0	0	-	-	-
C[N+]1(CCn2ccc3ccccc32)CCCCC1	0	0	?	0	0	0	-	-	-
Oc1ccc(CCNc2ncnc3ccc(Cl)cc23)cc1	0	?	7.3µM	0	0	0	0	0	7.3µM
Cc1cccc(NC(=O)C2CCN(S(=O)(=O)c3cccc4nsnc34)CC2)c1	0	0	?	0	0	0	-	-	-
O=C(Nc1cccc(F)c1)C1CCN(S(=O)(=O)c2cccc3nsnc23)CC1	-	0	0.0082µM	0	0	0	0	0	0
COC(=O)CN1C(=O)[C@H]2[C@@H](c3ccc(C)o3)N3C(=O)CN(CCO)C(=O)[C@@]3(Cc3ccccc3)[C@H]2C1=O	0	0	0	0	0	0	-	-	-
Cc1ccc(NC(=O)CCNS(=O)(=O)c2ccc3c(c2)CCC(=O)N3)cc1C	0	0	0	0	0	0	-	-	-
Cc1cccc(N2CCN(C(=O)CCNS(=O)(=O)c3ccc4c(c3)CCC(=O)N4)CC2)c1C	0	0	5.8µM	0	0	-	0	0	?
CCOC(=O)N1CCC(NC(=O)c2cc(C(=O)Nc3cccc(C(F)(F)F)c3)ccc2CO)CC1	0	0	5.8µM	0	0	?	0	0	16µM
CCOC(=O)N1CCC(NC(=O)c2ccc(CO)c(C(=O)NC3CCN(C(=O)OCC)CC3)c2)CC1	0	0	0	0	0	0	-	-	-
SMILES	Mito fusion act	miR-21 FLuc	Nrf2 block	Nrf2 activator	GRP78 ERSR act	A549 tox-1	FLuc counter 3	A549 tox-2	ARE-Fluc inh
COc1ccc(CCN(C)C(=O)Cc2ccc(-c3ccccc3)cc2)cc1OC	0	0	5.8µM	0	0	0	0	0	18µM
C=CC[C@@H]1C=C[C@H](O/N=C\[C@@H](C)[C@H](OCc2ccccc2)C(C)C)[C@H](CO)O1	-	-	-	-	0	-	-	-	-
Cc1cc(C)n(CC2CC(=O)N(c3ccccc3)C2=O)n1 (configuration not stated)	0	0	0	0	0	0	-	-	-
Cc1ccccc1-n1ncc2c(SCC(=O)NC3CCCC3)ncnc21	0	0	8.2µM	0	0	0	0	0	15µM
C=CCn1c(C)cc(-c2csc(NC(=O)C3CCN(c4ncnc5sc(C)c(C)c45)CC3)n2)c1C	-	-	0	0	0	0	-	-	-
COc1ccc(-c2csc(NC(=O)C3CCN(c4ncnc5sc(C)c(C)c45)CC3)n2)cc1OC	0	-	4.1µM	0	0	0	0	0	6.5µM
O=C(Cc1ccc(Cl)cc1)NCC(=O)N1CCN(Cc2ccccc2)CC1	0	0	0	0	0	0	-	-	-
CCOC(=O)N1CCN(C(=O)CCNS(=O)(=O)c2ccc(C)c(C)c2)CC1	0	-	0	0	0	0	-	-	-
Cc1ccc(OCc2cc(C(=O)N3CCCCCCC3)no2)cc1C	0	0	?	0	0	0	-	-	-
COCC1CCN(C(=O)c2cc(COc3ccc4ncccc4c3)on2)CC1	0	0	3.7µM	0	0	0	0	0	7.3µM
O=C(NC1CCCC1)c1cc(COc2ccc3ncccc3c2)on1	0	0	6.5µM	0	0	0	0	0	3.7µM
O=C(c1cc(COc2ccc3ncccc3c2)on1)N1CCCC1	0	0	4.1µM	0	0	0	?	0	?
O=C(c1cc(COc2ccc3ncccc3c2)on1)N1CCCCCC1	0	0	3.7µM	0	0	0	?	0	6.5µM
Cc1ccc(OCc2cc(C(=O)NC3CCCCC3)no2)cn1	0	0	0	0	0	0	-	-	-
CCN1C(=O)/C(=C/N(C(C)=O)c2ccccc2)N(c2ccccc2)C1=S	0	0	0	0	0	0	-	-	-
COc1cccc(CN(C)C(=O)c2cc(COc3ccc4ncccc4c3)on2)c1	0	0	3.7µM	0	0	?	0	0	7.3µM
Cc1cccc(NC(=O)Cn2cc(C(=O)C3CCCCC3)c3ccccc32)c1C	-	0	5.8µM	0	0	0	0	0	5.8µM
Cc1ccc(NC(=O)C(=O)NCC(c2cccnc2)N2CCN(C)CC2)cc1 (configuration not stated)	-	?	?	0	0	0	-	-	-
